UUG fidelity: modulators of start codon recognition fidelity in yeast. S. cerevisiae UUG-firefly luciferase reporter, luminescence/redox ratio. activity score, % at 18.7 µM. 350,000 tested, 0.13% active;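 active = replicate mean at a twofold rise or more, about +100% in these data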;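 note: firefly luciferase made from a UUG start codon reports start codon fidelity; reporter light over untreated wells divided by growth signal over untreated wells; some hits fall short of that in this replicate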
S100A4 MyoIIA: inhibitors of S100A4-myosin IIA peptide binding, primary screen, biochemical, fluorescence polarization, TAMRA-MyoIIA peptide. inhibition, % at 10.7 µM. 360,000 compounds, 0.14% hits;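 active = mean inhibition of at least 70% across replicates, with every replicate also reaching that level; inconclusive = mean inhibition reaches 70% but some replicates fall short; inactive = mean inhibition below 70%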
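Material: S100A4 monomer (human). Medium: Calcium-containing HEPES buffer, pH 7.2. Probe or stimulus: labelled myosin peptide probe, 5 nM. Compound dosing: one concentration per compound. Timing: polarization read 5 min after assay mix addition, stable 5–60 min. Benchmarks: DMSO as neutral control, TFP as positive control.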
ARNT TACC3 PPI: disruptors of ARNT/TACC3 protein interaction, primary screen, biochemical, AlphaScreen, single concentration. AlphaScreen His-ARNT PAS-B/GST-TACC3 binding, luminescence; TACC3 fragment carries E629A point mutation. inhibition, % at 9.99 µM. 390,000 compounds, 0.66% hits. AID 623870, 2012;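 active = mean inhibition of replicates at least 50% and at least half of replicates each reaching 50%; inconclusive = half or more replicates reach 50% but mean below 50%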;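 also: 0% = complete ARNT plus TACC3 wells and 100% = ARNT alone without TACC3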
E-sel inducer: E-selectin induction in HUVECs, primary screen, imaging, HUVEC, immunofluorescence imaging, single point; normalized: neutral wells 0, TNF-alpha wells 100; activation, % at 7.58 µM; 260,000 compounds, 0.37% hits;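 active = mean E-selectin-positive cell signal at least 10% of the positive control, reached in at least 60% of replicates, without over 20% cell loss; inconclusive = no rule given, readout overlaps actives, possibly toxicity-flagged; inactive = the rest, including those meeting only one limit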
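Assay system: HUVEC, human umbilical vein endothelial cells / Amount: 3,000 HUVEC/well / Controls: TNF-alpha positive control, DMSO neutral control / Compound dosing: single concentration / Medium: EGM-2 over gelatin coat / Evaluation: percent E-selectin-positive cells / Signal: immunofluorescence imaging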
ERAP1 inh: human ERAP1 aminopeptidase inhibitors, primary screen, biochemical, single point, plate reader; recombinant ERAP1, Leu-AMC fluorescence, 60 min; Endoplasmic reticulum aminopeptidase 1 (Homo sapiens), Q9NZ08; inhibition, % at 10.7 µM; 340,000 compounds, 0.15% hits;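 active = mean replicate inhibition of at least 30%, or all replicates individually reaching that 30% level; inactive = mean below 30% and not every replicate reaching it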;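 also: 0% = neutral control wells and 100% = L-leucinethiol positive control wells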
AF4-AF9 inh: inhibitors of AF4 peptide binding to AF9, primary screen, biochemical, AlphaScreen, biotin-AF4 peptide, FLAG-AF9, single point; 350,000 compounds, 0.47% hits; inhibition, % at 10 µM; Protein AF-9 (Homo sapiens), P42568; AID 651704, 2012;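 active = every replicate reaching a set inhibition limit, whatever the replicate mean, cut at about 25% in these data; inconclusive = mean inhibition reaches that limit but some replicates miss it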;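 also: 0% = plate neutral control median and 100% = total signal loss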
ARNT Alpha ctr: AlphaScreen signal interference compounds, dose response, artefact control for ARNT-TACC3 interaction inhibitor project, biochemical, luminescence, cherry-pick; shares compounds with ARNT TACC3 PPI; His-ARNT PASB-GST AlphaScreen artifact counter-screen; AC50, µM (top dose mostly 68 µM), for the others: top-dose activity change, negative = signal decrease; 1,200 compounds, 50% hits;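 active = every separate test run was called active for a drop in luminescence, with AC50 within twice the top valid dose, actives reach about 71 µM in these data; inconclusive = the separate test runs disagree in their calls; inactive = all runs inactive, including signal change in the wrong direction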
Numbers without * were called inactive. The list is not random: actives were taken first. Their share in the collection is about 1.3%.

Chains of the proteins cited; added tags and fusions are not shown.
Protein AF-9 (Homo sapiens), P42568, UniProt P42568, whole entry, looked up: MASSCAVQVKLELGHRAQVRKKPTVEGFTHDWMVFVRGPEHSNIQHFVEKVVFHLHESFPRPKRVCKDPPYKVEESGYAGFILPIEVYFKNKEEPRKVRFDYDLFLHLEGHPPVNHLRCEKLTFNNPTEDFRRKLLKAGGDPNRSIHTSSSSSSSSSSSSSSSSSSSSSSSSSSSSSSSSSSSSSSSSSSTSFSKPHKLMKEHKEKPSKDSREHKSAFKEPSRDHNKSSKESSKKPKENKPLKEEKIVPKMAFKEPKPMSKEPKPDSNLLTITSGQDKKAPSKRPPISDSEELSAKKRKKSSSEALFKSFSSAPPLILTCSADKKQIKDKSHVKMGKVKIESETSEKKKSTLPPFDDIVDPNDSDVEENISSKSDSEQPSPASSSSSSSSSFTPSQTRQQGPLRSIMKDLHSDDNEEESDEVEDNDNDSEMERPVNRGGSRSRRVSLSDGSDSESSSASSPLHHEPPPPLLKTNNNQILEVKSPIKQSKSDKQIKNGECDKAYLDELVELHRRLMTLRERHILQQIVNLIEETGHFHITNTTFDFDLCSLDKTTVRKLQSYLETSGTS

O=C(CN1C(=O)C2CCCCC2C1=O)Nc1nc(-c2ccccn2)cs1 (stereo not drawn) was read as UUG fidelity -33, ARNT TACC3 PPI 75* and ARNT Alpha ctr 52µM*.
For CC(Oc1ccc(Br)cc1)C(=O)Nc1nc(-c2ccccn2)cs1 (stereo not drawn) the results were UUG fidelity -43, S100A4 MyoIIA 1, ARNT TACC3 PPI 29, E-sel inducer 1, ERAP1 inh 0 and AF4-AF9 inh 2.
Screening O=C(O)c1cc2c(cn1)[nH]c1ccccc12 returned UUG fidelity -23, S100A4 MyoIIA 3, ARNT TACC3 PPI 75*, ERAP1 inh -17, AF4-AF9 inh -4 and ARNT Alpha ctr 9.7µM*.
`O=C(O)c1cc(=O)c2ccccc2[nH]1` gave UUG fidelity -21, S100A4 MyoIIA -3, ARNT TACC3 PPI 7, ERAP1 inh 6 and AF4-AF9 inh 1.
For Cc1cc(C)c2nc(C)cc(N/N=C/c3ccc(O)cc3)c2c1 the results were UUG fidelity -16, S100A4 MyoIIA 6, ARNT TACC3 PPI 55*, ERAP1 inh 7, AF4-AF9 inh 26* and ARNT Alpha ctr 32µM*.
For Cc1cc(N/N=C/c2ccc(O)cc2)c2cccc(C)c2n1 the results were UUG fidelity -2, S100A4 MyoIIA -2, ARNT TACC3 PPI 1, ERAP1 inh 5 and AF4-AF9 inh inconclusive.
C[C@@H]1CN([C@H](C)CO)C(=O)Cc2cc(NC(=O)C3CCCCC3)ccc2O[C@@H]1CN(C)S(=O)(=O)c1ccccc1 was read as UUG fidelity 14, S100A4 MyoIIA -1, ARNT TACC3 PPI -2, E-sel inducer 0, ERAP1 inh 0 and AF4-AF9 inh -3.
For c1ccc(-c2cnnc(-c3ccccn3)n2)cc1 the results were UUG fidelity -14, ARNT TACC3 PPI 57*, E-sel inducer 0 and ARNT Alpha ctr 26µM*.
c1ccc(-c2cnc(-c3ccccn3)nn2)cc1 was read as UUG fidelity -30, S100A4 MyoIIA 5, ARNT TACC3 PPI 65*, E-sel inducer 0, AF4-AF9 inh 3 and ARNT Alpha ctr 32µM*.
`c1ccc(-c2cnc(-c3ccccc3)nn2)cc1` gave UUG fidelity -38, S100A4 MyoIIA -6, ARNT TACC3 PPI 0, E-sel inducer 0, ERAP1 inh 4 and AF4-AF9 inh -1.
Screening Cc1noc(C)c1S(=O)(=O)N(C)C[C@@H]1Oc2ccc(NC(=O)Nc3ccc(C(F)(F)F)cc3)cc2CC(=O)N([C@H](C)CO)C[C@H]1C returned UUG fidelity -12, ARNT TACC3 PPI 3 and E-sel inducer 0.
`CN1C(=O)c2cc(NC(=O)Nc3ccccc3F)ccc2OC[C@H]2O[C@H](CC(=O)O)CC[C@H]21` gave UUG fidelity -3, ARNT TACC3 PPI -1 and E-sel inducer 0.
Screening CC(=O)c1cccc(NC(=O)N2CCCC2C(=O)NCc2ccccc2)c1 (stereo not drawn) returned UUG fidelity -7, ARNT TACC3 PPI 21* and ARNT Alpha ctr 7%.
For Cc1noc(C)c1NC(=O)N(C)C[C@@H]1OCCCC[C@@H](C)Oc2ccc(NC(=O)C3CCCCC3)cc2C(=O)N([C@@H](C)CO)C[C@@H]1C the results were UUG fidelity -1, S100A4 MyoIIA 3, ARNT TACC3 PPI 9, E-sel inducer 0, ERAP1 inh 2 and AF4-AF9 inh -5.
Screening Cc1nnc(NC(=O)CSc2nnc(CNC(=O)c3ccc(S(=O)(=O)N(C)C)cc3)o2)s1 returned UUG fidelity -27, S100A4 MyoIIA -2, ARNT TACC3 PPI 63*, E-sel inducer 0, ERAP1 inh 3, AF4-AF9 inh -3 and ARNT Alpha ctr -2%.
`COc1ccc(C(=O)CSc2nnc(CNC(=O)c3ccc(S(=O)(=O)N(C)C)cc3)o2)cc1` gave UUG fidelity -2, S100A4 MyoIIA 0, ARNT TACC3 PPI -3, E-sel inducer 0, ERAP1 inh 2 and AF4-AF9 inh -4.
Screening O=C(CSc1nnc(CNC(=O)c2ccc(F)cc2)o1)Nc1nccs1 returned UUG fidelity 0, S100A4 MyoIIA -7, ARNT TACC3 PPI 63*, ERAP1 inh -1, AF4-AF9 inh -3 and ARNT Alpha ctr -14%.
`O=C(C[C@H]1CC[C@@H](NC(=O)CC2CC2)[C@H](CO)O1)NCc1ccc(Cl)cc1` gave S100A4 MyoIIA 6, ARNT TACC3 PPI 0, E-sel inducer 0, ERAP1 inh 7 and AF4-AF9 inh -3.
For CCCOC(=O)Nc1nc2ccccc2o1 the results were UUG fidelity -17 and ARNT TACC3 PPI -7.
`CCOC(=O)c1cnc(Nc2nc3ccccc3o2)nc1CN1CCN(C)CC1` gave UUG fidelity -28, ARNT TACC3 PPI 55* and ARNT Alpha ctr 41µM*.

Three compounds drawn at random from those above:
For Cc1cc(C)c2nc(C)cc(N/N=C/c3ccc(O)cc3)c2c1 the results were UUG fidelity -16, S100A4 MyoIIA 6, ARNT TACC3 PPI 55*, ERAP1 inh 7, AF4-AF9 inh 26* and ARNT Alpha ctr 32µM*.
C[C@@H]1CN([C@H](C)CO)C(=O)Cc2cc(NC(=O)C3CCCCC3)ccc2O[C@@H]1CN(C)S(=O)(=O)c1ccccc1 was read as UUG fidelity 14, S100A4 MyoIIA -1, ARNT TACC3 PPI -2, E-sel inducer 0, ERAP1 inh 0 and AF4-AF9 inh -3.
Screening O=C(CSc1nnc(CNC(=O)c2ccc(F)cc2)o1)Nc1nccs1 returned UUG fidelity 0, S100A4 MyoIIA -7, ARNT TACC3 PPI 63*, ERAP1 inh -1, AF4-AF9 inh -3 and ARNT Alpha ctr -14%.

Other records follow.
`O=[N+]([O-])c1cccc(/C=N/Nc2nc(NCc3ccccc3)nc(N3CCOCC3)n2)c1O` gave S100A4 MyoIIA 2, ARNT TACC3 PPI 59*, ERAP1 inh 0, AF4-AF9 inh 19 and ARNT Alpha ctr 14µM*.
Screening CCOc1cc(CNCc2ccccn2)cc(Cl)c1OCC returned UUG fidelity -28, S100A4 MyoIIA 0, ARNT TACC3 PPI 53*, E-sel inducer -1, ERAP1 inh 1, AF4-AF9 inh 5 and ARNT Alpha ctr -21%.
Screening COc1cccc(CNCc2ccc(OC)c3ccccc23)c1OC returned UUG fidelity -8, S100A4 MyoIIA 28, ARNT TACC3 PPI 9, E-sel inducer 0, ERAP1 inh 1 and AF4-AF9 inh 1.
`CCNCc1cc(Cl)c(OCc2ccccc2)c(OCC)c1` gave S100A4 MyoIIA -1, ARNT TACC3 PPI -4, ERAP1 inh 1 and AF4-AF9 inh 1.
Screening COc1cc(CNCc2ccccn2)ccc1OCc1ccc(Cl)cc1Cl returned ARNT TACC3 PPI 55* and ARNT Alpha ctr -39%.
CCOc1cc(CNCc2ccccn2)cc(Cl)c1OC was read as UUG fidelity -16, S100A4 MyoIIA -7, ARNT TACC3 PPI 53*, E-sel inducer 2, ERAP1 inh -3, AF4-AF9 inh 5 and ARNT Alpha ctr -30%.

Screening data deposited in PubChem by Broad Institute.
